Measurements from USRE38460E1 (priority 1994, dated 2004).

Amino acid sequences for entries named in this document (tags omitted). Residues count along the entry.
UniProt P37136, 32-616 isoform 2 limits assumed: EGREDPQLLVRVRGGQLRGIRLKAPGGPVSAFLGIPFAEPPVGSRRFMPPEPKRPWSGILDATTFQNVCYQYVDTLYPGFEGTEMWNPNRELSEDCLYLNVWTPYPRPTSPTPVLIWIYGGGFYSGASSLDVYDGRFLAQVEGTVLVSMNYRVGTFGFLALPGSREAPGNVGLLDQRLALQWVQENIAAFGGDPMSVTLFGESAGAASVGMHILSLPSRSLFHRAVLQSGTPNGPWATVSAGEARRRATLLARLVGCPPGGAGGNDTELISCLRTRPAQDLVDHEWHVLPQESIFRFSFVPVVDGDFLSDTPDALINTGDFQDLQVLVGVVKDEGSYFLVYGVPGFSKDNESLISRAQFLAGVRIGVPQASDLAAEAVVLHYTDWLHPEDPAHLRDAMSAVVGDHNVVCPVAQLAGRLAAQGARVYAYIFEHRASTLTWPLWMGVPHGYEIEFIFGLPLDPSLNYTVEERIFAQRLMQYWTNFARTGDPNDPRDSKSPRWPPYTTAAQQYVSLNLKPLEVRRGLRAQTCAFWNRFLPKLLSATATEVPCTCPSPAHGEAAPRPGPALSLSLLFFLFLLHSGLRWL
UniProt Q9JKC1, 24-597 limits assumed: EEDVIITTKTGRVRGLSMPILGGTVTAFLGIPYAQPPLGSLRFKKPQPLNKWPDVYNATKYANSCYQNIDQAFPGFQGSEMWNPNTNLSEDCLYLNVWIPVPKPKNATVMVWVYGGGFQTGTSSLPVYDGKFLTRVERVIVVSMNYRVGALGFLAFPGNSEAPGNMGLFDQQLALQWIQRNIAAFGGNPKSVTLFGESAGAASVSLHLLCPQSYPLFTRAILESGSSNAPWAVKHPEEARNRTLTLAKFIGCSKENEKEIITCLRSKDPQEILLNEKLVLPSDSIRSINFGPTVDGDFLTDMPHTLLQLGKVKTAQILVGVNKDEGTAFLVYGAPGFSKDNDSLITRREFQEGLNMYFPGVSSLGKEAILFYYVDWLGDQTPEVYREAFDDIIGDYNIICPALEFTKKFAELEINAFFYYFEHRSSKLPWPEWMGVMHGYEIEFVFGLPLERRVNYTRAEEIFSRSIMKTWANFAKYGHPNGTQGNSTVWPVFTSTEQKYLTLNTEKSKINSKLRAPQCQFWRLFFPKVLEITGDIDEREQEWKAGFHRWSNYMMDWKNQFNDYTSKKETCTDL

Tests used:
[1] = target: acetylcholinesterase (AChE) (Rattus norvegicus, UniProt P37136); settings: read-out: concentration for inhibition of 50% of enzyme activity (IC50) acetylcholinesterase (AChE); Table 1; AChE taken from rat's red cell membrane
[2] = target: butyrylcholinesterase (BuChE) (Rattus norvegicus, UniProt Q9JKC1); experiment: In-vitro anticholinesterase effect, colorimetric method (Ellman), BuChE from rat's serum; type: biochemical; settings: read-out: concentration for inhibition of 50% of enzyme activity (IC50) butyrylcholinesterase (BuChE); Table 1; BuChE taken from rat's serum

SMILES: CC=C1C2C=C(C)CC1(N(C)C(=O)C1=CN(C)CCC1)c1ccc(=O)n(C)c1C2 (centres unmarked)
- IC50 [1]: 3.63 µM
- IC50 [2]: > 331 µM
